Experimental data: patent US9725430B2, “Use of small molecule inhibitors targeting EYA tyrosine phosphatase” (Children's Hospital Medical Center, priority 2013, dated 2017)

Amino acid sequences for entries named in this document (tags omitted). Residues count along the entry.
UniProt P97480, 223-510: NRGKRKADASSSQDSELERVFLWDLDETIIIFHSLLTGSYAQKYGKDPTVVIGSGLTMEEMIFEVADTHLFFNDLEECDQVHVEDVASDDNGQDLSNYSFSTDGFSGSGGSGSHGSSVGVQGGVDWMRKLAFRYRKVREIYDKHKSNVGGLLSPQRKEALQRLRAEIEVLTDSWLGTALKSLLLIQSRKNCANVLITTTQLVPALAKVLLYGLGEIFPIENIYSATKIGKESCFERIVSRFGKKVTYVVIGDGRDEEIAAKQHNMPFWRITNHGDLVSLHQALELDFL
UniProt Q99504, 127-573: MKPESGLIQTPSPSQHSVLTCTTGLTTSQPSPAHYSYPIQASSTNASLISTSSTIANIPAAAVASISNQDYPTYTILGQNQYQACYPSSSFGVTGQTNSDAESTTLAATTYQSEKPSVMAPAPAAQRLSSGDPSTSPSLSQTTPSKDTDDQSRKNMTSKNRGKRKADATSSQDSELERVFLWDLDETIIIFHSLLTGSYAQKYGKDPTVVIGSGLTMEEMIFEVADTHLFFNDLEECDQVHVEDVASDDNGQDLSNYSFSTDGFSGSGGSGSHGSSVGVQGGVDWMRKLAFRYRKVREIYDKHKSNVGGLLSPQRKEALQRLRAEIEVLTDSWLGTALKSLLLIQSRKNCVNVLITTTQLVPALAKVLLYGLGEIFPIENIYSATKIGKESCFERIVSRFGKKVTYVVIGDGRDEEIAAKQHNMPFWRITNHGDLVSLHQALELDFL
UniProt P18031, whole entry, species assumed: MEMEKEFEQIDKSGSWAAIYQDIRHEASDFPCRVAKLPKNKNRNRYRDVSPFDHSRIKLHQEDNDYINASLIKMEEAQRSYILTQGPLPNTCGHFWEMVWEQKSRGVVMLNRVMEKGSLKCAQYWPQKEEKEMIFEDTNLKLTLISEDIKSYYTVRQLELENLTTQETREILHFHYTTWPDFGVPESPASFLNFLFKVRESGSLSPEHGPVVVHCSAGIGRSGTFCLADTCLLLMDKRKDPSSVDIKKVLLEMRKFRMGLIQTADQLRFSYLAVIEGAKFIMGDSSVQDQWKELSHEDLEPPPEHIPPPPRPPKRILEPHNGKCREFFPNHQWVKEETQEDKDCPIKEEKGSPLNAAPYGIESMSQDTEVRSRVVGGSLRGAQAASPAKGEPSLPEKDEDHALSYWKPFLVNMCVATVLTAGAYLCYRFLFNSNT

What was measured:
Format in all cases: biochemical
Eya3(ED) = Eya3(ED) (Mus musculus (Mouse), UniProt P97480); assay: p-nitrophenylphosphate (pNPP) assay, catalytic domain of Eya3; settings: pNPP substrate
Description: (§1) The catalytic domain of mouse Eya3 (“ED”, comprising residues 223-510 of Eya3) was purified as described by Rayapureddi, J. P. et al. (FEBS Lett 580, 3853-3859 (2006), incorporated by reference in its entirety). For full-length Eya3 (“hEYA3”), human Eya3 isoform 2 (representing the major species identified in human cell lines by mass spectrometry, expressed as residues 127-573 of NM_001990, isoform 1) was sub-cloned into pDEST565 to express a poly-histidine-Glutathione-S-transferase (His-GST) tagged fusion protein with a TVMV protease site. The protein was purified by glutathione-S-transferase affinity chromatography followed by TVMV cleavage, Ni-NTA chromatography, and finally size exclusion chromatography.
An inhibitory assay was conducted using the previously described p-nitrophenylphosphate assay (Rayapureddi, J. P. et al. Nature 426, 295-298 (2003)). Briefly, ED was incubated in a reaction mixture containing 20 mM MES pH 6, 2 mM MgCl2, 125 μM inhibitor, 3.4 mM para-nitrophenol phosphate (pNPP) and 0.01 μg/μL enzyme. The amount of 4-nitrophenol (pNP) produced was monitored at […] on a BioTek EL808 plate reader. […]
The compounds were then tested using full-length human recombinant, purified EYA3 and pNPP as a substrate. […] IC50 values were then calculated directly from regression curves using PRISM software. […]

EYA3 = EYA3 (Homo sapiens (Human), UniProt Q99504); assay: pNPP assay, full-length human recombinant EYA3; settings: pNPP substrate
Description: as §1
[…] The amount of 4-nitrophenol (pNP) produced was monitored at […] on a BioTek EL808 plate reader. A similar protocol was used to screen for inhibitor activity using hEYA3 and hEYA2(ED).
The compounds were then tested using full-length human recombinant, purified EYA3 and pNPP as a substrate. Compounds were dissolved in DMSO and diluted as needed. […] Reactions were incubated at 30° C. for 30 minutes and quenched with 100 mM EDTA pH 10. IC50 values were then calculated directly from regression curves using PRISM software. All reported values are the mean of two independent experiments.

PTP1B = PTP1B (Homo sapiens (Human), UniProt P18031); assay: PTP1B-catalyzed pNPP hydrolysis; settings: EYA3 vs PTP1B
Experimental: The catalytic domain of human Eya2 (“hEYA2(ED)”) was similarly sub-cloned as a polyhistidine fusion construct in the vector pDEST-527. Fusion protein was purified by NiNTA chromatography and followed by size-exclusion chromatography over a Superdex-75 column. The relative purity of protein samples was determined using SDS-PAGE. PTP1B was purified as described previously (Rayapureddi, J. P. et al. Nature 426, 295-298 (2003), incorporated by reference in its entirety).
An inhibitory assay was conducted using the previously described p-nitrophenylphosphate assay (Rayapureddi, J. P. et al. Nature 426, 295-298 (2003)). Briefly, ED was incubated in a reaction mixture containing 20 mM MES pH 6, 2 mM MgCl2, 125 μM inhibitor, 3.4 mM para-nitrophenol phosphate (pNPP) and 0.01 μg/μL enzyme.
PTP1B is a classical Cys-based tyrosine phosphatase.

| IC50 (Eya3(ED)) [µM] | IC50 (EYA3) [µM] | fold greater activity towards EYA3 than PTP1B (PTP1B) | Structure (SMILES) |
| --- | --- | --- | --- |
| 11 | 8.3 | 4.7-6.5 fold | CCc1oc2ccccc2c1C(=O)c1cc(Br)c(O)c(Br)c1 [Compound 1, Benzbromarone, reference compound] |
| – | 15.2 | – | CCCCc1oc2ccccc2c1C(=O)c1ccc(O)cc1 [Compound 1b] |
